Data reported in paper PMC11360180, “Enhancement of Antimicrobial Function by L/D-Lysine Substitution on a Novel Broad-Spectrum Antimicrobial Peptide, Phylloseptin-TO2: A Structure-Related Activity Research Study” (Pharmaceutics, 2024).
Several values for one entry are separate records, joined by “and”; a condition that tells them apart may be missing. Identical values can stand only once.

Assays:
Details in all cases: 5 × 10^5 CFU/mL, 24 h, absorbance 550 nm
E. coli (ATCC 8739) = format: cell-based, Escherichia coli
Text: (§1) Seven microorganism strains were used to preliminarily evaluate the antimicrobial activity of PSTO2 and its analogues, including Staphylococcus aureus (S. aureus) (ATCC® 6538), methicillin-resistant Staphylococcus aureus (MRSA) (NCTC® 12493), Enterococcus faecalis (E. faecalis) (NCTC® 12697), E. coli (ATCC® 8739), Klebsiella pneumonia (K. pneumonia) (ATCC® 43816), Pseudomonas aeruginosa (P. aeruginosa) (ATCC® CRM 9027), Acinetobacter baumanni (A. baumanni) (BAA® 747), and Candida albicans (C. albicans) (ATCC® 10231). In this study, the strains were cultured in Mueller–Hinton broth (MHB), nutrient broth (NB), and yeast–peptone–dextrose broth (YPD-B) correspondingly at 37 °C, with shaking at 120 rpm. Each peptide was dissolved from 128 μM to 1 μM and mixed with the bacterium at 5 × 10^5 CFU/mL. […]
(§2) After being incubated for 24 h, a Synergy HT plate reader (Bio-Tek, Shoreline, WA, USA) was used to detect the absorbance of each well in the 96-well plate at λ = 550 nm. The concentration at which no visible turbidity could be recorded was the MIC value. […] The plate was checked the next day for colony formation, and the lowest concentration at which no colony growing was recorded as an MBC value.

MRSA (NCTC 12493) = format: cell-based, methicillin-resistant Staphylococcus aureus
Text: as §1, §2

[1] = system: P. aeruginosa (ATCC 9027); format: cell-based, Pseudomonas aeruginosa
Text: as §1, §2

S. aureus (ATCC 6538) = format: cell-based, Staphylococcus aureus
Text: as §1, §2

## CC[C@H](C)[C@H](NC(=O)CN)C(=O)NCC(=O)N[C@@H](C)C(=O)N[C@H](C(=O)N[C@@H](CC(C)C)C(=O)N[C@@H](CCCCN)C(=O)N[C@H](C(=O)N[C@@H](CC(C)C)C(=O)N[C@H](C(=O)N[C@H](C(=O)NCC(=O)N[C@@H](CC(C)C)C(=O)N1CCC[C@H]1C(=O)N[C@@H](C)C(=O)N[C@@H](CC(C)C)C(=O)N[C@H](C(=O)N[C@@H](CO)C(=O)N[C@@H](Cc1c[nH]c2ccccc12)C(=O)N[C@H](C(=O)N[C@@H](CCCCN)C(=O)N[C@@H](CCCNC(=N)N)C(=O)N[C@@H](CCCCN)C(=O)N[C@@H](CCCNC(=N)N)C(=O)N[C@@H](CCC(N)=O)C(=O)N[C@@H](CCC(N)=O)C(N)=O)[C@@H](C)CC)[C@@H](C)CC)[C@@H](C)O)[C@@H](C)O)C(C)C)C(C)C [Mellitin, melittin, reference compound]
E. coli (ATCC 8739)
  MIC: 4 µM
MRSA (NCTC 12493)
  MIC: 2 µM
[1]
  MIC: 16 µM
S. aureus (ATCC 6538)
  MIC: 5.7 µg/mL and 2 µM
